From ChEMBL document CHEMBL1126355, “The basis for slowly reversible inhibition of dehydroquinate synthase: a case of mistaken identity?” (Bioorg Med Chem Lett, 1992) come the findings set out here.

The chains behind the UniProt entries cited, without tags or fusion partners. Where a name states a change or a piece, a line headed by the entry shows the natural chain unless it says otherwise.
UniProt P07639: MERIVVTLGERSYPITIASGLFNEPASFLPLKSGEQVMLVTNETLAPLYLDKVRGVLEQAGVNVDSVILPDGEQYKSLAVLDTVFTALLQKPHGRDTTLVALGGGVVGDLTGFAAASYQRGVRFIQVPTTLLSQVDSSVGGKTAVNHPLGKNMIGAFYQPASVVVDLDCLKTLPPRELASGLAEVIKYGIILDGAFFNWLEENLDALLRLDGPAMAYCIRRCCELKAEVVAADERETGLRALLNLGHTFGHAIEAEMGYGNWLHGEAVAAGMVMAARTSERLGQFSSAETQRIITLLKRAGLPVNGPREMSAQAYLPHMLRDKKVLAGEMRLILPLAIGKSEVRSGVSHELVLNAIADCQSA

For the test, the target named is 3-dehydroquinate synthase (Escherichia coli K-12, UniProt P07639). The experiment in a line: Inhibition constant against 3-dehydroquinate synthase.

For the compound `O=C(O)C1(O)CCC(O)C(CP(=O)(O)O)C1` (stereo unspecified), the affinity corresponds to a Ki of 0.22 µM.
